Source: US10556889B1, “Salvinorin derivatives” (Blue Sky Pharmaceuticals, LLC, priority 2018, dated 2020)

Protein sequences, listed by entry. Tags and fused reporters are not part of them.
UniProt P42866, whole entry: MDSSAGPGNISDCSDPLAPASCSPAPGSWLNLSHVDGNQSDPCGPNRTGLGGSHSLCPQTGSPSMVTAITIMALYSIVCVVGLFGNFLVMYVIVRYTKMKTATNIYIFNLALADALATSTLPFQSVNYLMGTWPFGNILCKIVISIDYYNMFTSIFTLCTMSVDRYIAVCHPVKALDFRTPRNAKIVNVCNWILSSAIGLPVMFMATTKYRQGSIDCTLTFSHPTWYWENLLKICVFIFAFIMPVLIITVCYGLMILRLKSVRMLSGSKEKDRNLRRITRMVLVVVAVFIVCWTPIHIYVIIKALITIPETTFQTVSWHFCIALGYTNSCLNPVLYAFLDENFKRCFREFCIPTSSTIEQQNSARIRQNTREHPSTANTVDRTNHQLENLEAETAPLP

Assays:
uOR [1] = target: T1, uOR (Mus musculus, UniProt P42866); test: Agonist induced ERK 1/2 phosphorylation (efficacy and potency relative to DAMGO)
uOR [2] = target: T1, uOR; test: β-arrestin recruitment to uOR / receptor internalization; format: cell-based; parameters: expressed in transfected cells
From the text: The data provided in Tables 1A and 1B below were obtained using standard analytical techniques known to those skilled in the art. Such techniques are described in detail in C.
[…] were transiently transfected (electroporation) with combinations of cDNA for hemagglutinin (HA-N terminus)-tagged uOR, beta-arrestin2 tagged with green fluorescent protein, mouse uOR tagged at the C terminus with yellow fluorescent protein and GRK-2. […] After addition of drug, cells were visualized using confocal microscopy. Multiple cells were recorded per dish after more than four separate transfection experiments—representative cells are shown in the manuscript.
The “β-arrestin Recruitment EC50±SEM” column in Table 2 below represents the degree to which each tested compound recruited beta-arrestin to interact with uOR. As will be appreciated by those skilled in the art, EC50 refers to the concentration of a drug which induces a response halfway between the baseline and maximum after a specified exposure time. In this instance, lower values indicate greater potency of the molecule, and this is […].
As will also be understood by those skilled in the art, “Max Fold Efficacy” refers to the maximum signal/background ratio that an agonist will induce or, conversely, that an antagonist will inhibit an agonist from inducing a response. […]

COC(=O)[C@@H]1C[C@H](OC(=O)c2ccc(Br)cc2)C(=O)[C@H]2[C@@]1(C)CC[C@H]1C(=O)O[C@H](c3ccoc3)C[C@]21C
EC50 (uOR [1]): 6.85 µM | EC50 (uOR [2]): > 10 µM | Max Fold Efficacy (uOR [2]): 2.7
